System: C9ORF72 ALS/FTD iMNs

`Nc1ccc(C(=O)Nc2cccc(-c3nc(N4CCOCC4)c4oc5ncccc5c4n3)c2)cn1` [YM201636] was tested, and the “C9ORF72 ALS/FTD iMN survival” value was “rescued C9ORF72 and sporadic ALS”.

From patent US20230098111A1, “COMPOSITIONS AND METHODS TO TREAT NEUROLOGICAL DISEASES” (University of Southern California, priority 2020, published 2023)
